The chains behind the UniProt entries cited, without tags or fusion partners.
UniProt Q01776, whole entry: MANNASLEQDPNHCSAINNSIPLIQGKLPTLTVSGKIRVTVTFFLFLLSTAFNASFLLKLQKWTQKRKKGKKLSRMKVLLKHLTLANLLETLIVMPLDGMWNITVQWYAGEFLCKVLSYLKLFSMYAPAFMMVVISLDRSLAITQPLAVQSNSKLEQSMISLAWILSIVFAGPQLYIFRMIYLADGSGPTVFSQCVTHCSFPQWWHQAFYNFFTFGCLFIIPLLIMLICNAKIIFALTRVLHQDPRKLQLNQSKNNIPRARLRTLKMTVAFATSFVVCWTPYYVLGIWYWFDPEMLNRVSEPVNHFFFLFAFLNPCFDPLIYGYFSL

According to patent US8541462B2, “Tetrahydrocarbazole derivatives as ligands of G-protein coupled receptors” (AEterna Zentaris GmbH, priority 2007, dated 2013):

What was measured:
[1] = biological target: LHRH receptor (endogenous GnRH receptor of alpha T3-1 cell line) (Mus musculus, UniProt Q01776); test: LHRH-receptor binding assay (displacement of [125I] cetrorelix on alpha T3-1 cells); conditions: WO 2006/005484-substance 75 = 100%
Experimental: For LHRH receptor binding studies, an assay system using alpha T3-1 cell line with endogenous GnRH receptor expression was employed (Windle et al., Mol. Endocrinol. 1990, 4(4): 597-603).
Iodinated cetrorelix was used as a tracer with about 80% of peptide capable of specific receptor association.
For displacement binding assays, the cells were incubated with approximately 200 pM [^125l] cetrorelix and different concentrations of unlabeled test compounds as competitor. The cell suspension in binding medium was layered on top of silicon/paraffin oil, incubated for 60 min at 37° C. and separated by centrifugation. The tips of the tubes containing the cell pellet were cut off, subsequently cell pellet and supernatant were analyzed by gamma-radiation analysis.
The amount of unspecific binding was determined by including unlabeled cetrorelix at 1 μM final concentration and was typically ≦10% of total binding. IC50 values were calculated by using the GraphPad Prism analysis program (GraphPad Software Inc.).

[2] = Metabolic stability testing in liver microsomes; conditions: mixed-gender human liver microsomes, 1 mg microsomal protein/mL, initial concentration 10 μM, 60 minutes at 37° C.; WO 2006/005484-substance 7 = 100%
Experimental: Subcellular fractions of different tissues can be prepared easily by ultracentrifugation. Most commonly these are prepared from the liver of animals and human donors to gain information about the potential hepatic clearance of compounds (first-pass elimination of drugs). Human or animal (e.g. dog, mouse, rat) subcellular fraction like liver microsomes, or possibly the fraction called S9 have therefore become a very commonly and widely used as an in vitro model to investigate mainly cytochrome P450 dependent phase I (but also phase II) metabolism that takes place in the liver.
In order to reflect the standard proportion of the enzymes in human and animal livers, liver microsomes are usually pooled from a number of […] of the same sex (or mixed-gender). By supplementing the liver microsomes with relevant cofactors and other components it is possible to investigate and distinguish between CYPs, flavin-containing monooxygenase (FMO) and UDP-glucuronosyltransferase (UGT) activities.
Selected compounds of the invention were tested for their stability in mixed-gender human liver microsomes and compared to pertinent prior art compounds.
Under the test conditions applied (1 mg microsomal protein/mL, initial concentration of 10 μM, and incubation for 60 minutes at 37° C.) the following normalized results were obtained.

[3] = Pharmacokinetic study (oral, cannulated rats, LC/MS of plasma); conditions: male Wistar rats, 5 mg/kg, mixture of both compounds in Solutol HS 15/PEG300 (3:1)
Experimental: Adult male Wistar rats weighing 278-290 g (Jinvier, France) were used in the study. Animals were housed in a temperature-controlled room (20-24° C.) and maintained in a 12 h light/12 h dark cycle. Food and water were available ad libitum.
For surgery, rats were anaesthetised with a ketamine (90 mg/kg)/xylazine (10 mg/kg) mixture, and cannulated with silicone tubing via the right jugular vein. Prior to the first blood sampling, animals were connected to a counterbalanced system and tubing to perform blood sampling in the freely moving rat.
Separate stock solutions (5 mg/ml) of compound 52 of the invention and prior art substance WO 2006/005484—substance 76 were prepared in Solutol HS 15/PEG300 (3:1). The whole process was performed under constant stirring. Half of the volume of the vehicle was added first. After sonication (5 minutes), the second half of the vehicle was added and the vials were again sonicated. All the solutions were clear and free of particles or agglomerates.
Immediately before application, the dosing mixture was prepared by adding equal volumes of the stock solutions to end up with a final concentration of 1 mg/ml for each compound. The mixture was applied orally to rats with an application volume of 5 ml/kg.
Blood samples (200 μl) were taken 1 hour before application and 1, 2, 4, 6, 8, 12 and 24 hours after. They were centrifuged at 650 g for 10 minutes at 4° C. and then the plasma was harvested and kept at −20° C. until LC/MS analysis.

| SMILES | Normalized Affinity [1] | Normalized microsomal stability [2] | AUC0-tz [3] | Cmax obs [3] | tmax obs [3] |
| --- | --- | --- | --- | --- | --- |
| CCC(C)[C@H](NC(=O)Cc1ccc(F)cc1F)C(=O)N[C@]1(C(=O)N[C@H](C(N)=S)C(C)CC)CCc2[nH]c3c(Cl)cc(F)cc3c2C1 (some centres unmarked) | 95% | – | – | – | – |
| CCC(C)[C@H](NC(=O)Cc1ccccc1F)C(=O)N[C@]1(C(=O)N[C@H](C(N)=S)C(C)CC)CCc2[nH]c3c(C(F)(F)F)cccc3c2C1 (some centres unmarked) | 97% | 61% | 96.2 ng·h/mL | 12.5 ng/mL | 4.0 h |
| CCC(C)[C@H](NCCc1ccc(F)cc1)C(=O)N[C@]1(C(=O)N[C@H](C(N)=S)C(C)CC)CCc2[nH]c3c(Cl)cc(F)cc3c2C1 (some centres unmarked) | 25% | – | – | – | – |
| CCC(C)[C@H](NC(=O)[C@@]1(NC(=O)[C@@H](NC(=O)Cc2ccccc2F)C(C)CC)CCc2[nH]c3c(C(F)(F)F)cccc3c2C1)C(N)=O (some centres unmarked) | 100% | – | – | – | – |
